## Binding of CDR-mutated scFvs to a peptide of the spike HR2 region

Antigen: PDVDLGDISGINAS, a 14-residue peptide of the SARS-CoV-2 spike HR2 region.

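The starting antibody came from a phage panning campaign against this peptide. In library AAYL49, one, two or three CDR residues were substituted; doubles and triples were drawn at random. Affinity was read by AlphaSeq, a pooled yeast mating assay with surface-displayed partners. Mating (16 h, 30 °C) was followed by selection of diploids and sequencing of their barcodes. Read counts were normalised to the haploid input and turned into Kd by a linear fit to BCL2-family pairs of known affinity, for each replicate. There are three technical replicates.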

The variants keep the light chain, the linker and the frameworks of Ab-14 (scFv order VH, three GGGGS repeats, VL).
VH: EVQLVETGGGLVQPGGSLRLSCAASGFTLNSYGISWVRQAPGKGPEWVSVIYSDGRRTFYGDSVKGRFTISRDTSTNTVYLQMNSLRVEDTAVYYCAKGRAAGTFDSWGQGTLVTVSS
VL: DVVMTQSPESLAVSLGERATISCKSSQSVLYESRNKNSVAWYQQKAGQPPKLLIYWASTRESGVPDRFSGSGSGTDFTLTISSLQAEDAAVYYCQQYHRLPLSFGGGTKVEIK

Changes read parent residue, position, new residue, counted from the first residue of the VH shown. This list gathers variants with a substitution at A101 (VH, numbered from residue 1). Numbers give log10(Kd / nM), so 0 is 1 nM and 3 is 1 µM. Smaller is tighter. Where no diploid with the target was found in that replicate, the entry reads "nd": below detection, most likely a poor binder, though not proof of it. Empty control strains, which show no peptide, gave a signal in 15% of pairings with library AAYL49; the median was 4.06 and 95% of these signals were weaker than 2.83. No background was subtracted. The control count says in how many pairings with the empty strains this scFv gave a signal.

For D54F A101Q G103D, the assay gave nd, nd, nd (controls 0 of 9). With A101W A102R the result was nd, nd, nd (controls 1 of 9). Variant D54R A101W gave 5.02, 3.53, nd (controls 5 of 9). For Y32Q S35L A101V, the assay gave nd, nd, nd (controls 0 of 9). For G33D A101Q D106F, the assay gave nd, nd, nd (controls 0 of 9).

With F27P S35R A101I the result was 4.57, nd, nd (controls 2 of 9). With T28C A101I F105S the result was 3.79, 3.78, nd (controls 4 of 9). With R100G A101I the result was 0.78, 1.00, 0.56 (controls 0 of 9). With D54W R56P A101Q the result was 4.37, nd, 4.97 (controls 1 of 9). With R57M G99R A101M the result was nd, 4.25, nd (controls 2 of 9).

For S53N G61E A101Q, the assay gave 2.72, 2.96, 2.69 (controls 3 of 9). Variant L29M A101E showed -0.13, 0.35, 0.53 (controls 0 of 9). For K65S A101T, the assay gave 1.57, 1.63, 1.75 (controls 8 of 9). With R57Y A101F A102M the result was nd, nd, nd (controls 1 of 9). For G33Q A101N G103E, the assay gave nd, nd, nd (controls 1 of 9).

Variant I51S A101M showed 3.23, nd, 2.72 (controls 1 of 9). With T28Y K65L A101I the result was 1.78, 1.60, 1.88 (controls 0 of 9). Variant F59T V64G A101N gave 2.06, 1.86, 1.84 (controls 3 of 9). For L29M Y32L A101C, the assay gave nd, nd, nd (controls 0 of 9). With T28R D54K A101N the result was nd, nd, nd (controls 0 of 9).

Variant N30M Y52A A101G gave 3.08, nd, 4.10 (controls 0 of 9). Variant F27W V64L A101K showed nd, nd, nd (controls 0 of 9). For Y32V S35Q A101K, the assay gave nd, nd, nd (controls 0 of 9). With N30R I34D A101P the result was nd, nd, nd (controls 0 of 9). Variant N30P A101R T104D gave 4.61, nd, 5.12 (controls 1 of 9).

For F27R G55Y A101Q, the assay gave nd, nd, nd (controls 1 of 9). Variant G26F T28M A101M gave nd, nd, nd (controls 0 of 9). Variant G26S T58P A101S gave nd, 2.84, nd (controls 0 of 9). With G26I Y60M A101W the result was nd, nd, nd (controls 1 of 9). Variant G33Q R56V A101C gave nd, 3.66, nd (controls 1 of 9).

For G61D A101E, the assay gave nd, 2.53, 1.71 (controls 0 of 9). Variant F59H G61S A101K showed nd, nd, 2.84 (controls 2 of 9). With V50F A101Y the result was nd, nd, nd (controls 0 of 9). Variant L29C I51N A101K gave 5.46, 3.98, nd (controls 1 of 9). With N30Q A101P F105T the result was nd, nd, nd (controls 0 of 9).

With T28I S53Y A101R the result was nd, nd, nd (controls 0 of 9). For L29E G99C A101Y, the assay gave nd, nd, nd (controls 0 of 9). Variant S53I A101R F105S gave nd, nd, nd (controls 0 of 9). Variant G33P S63C A101Y gave nd, 3.12, 3.09 (controls 2 of 9). With D54V T58E A101H the result was nd, nd, nd (controls 0 of 9).

Variant T28E K65Y A101W gave 1.10, 1.54, 1.23 (controls 0 of 9). With D54N A101H A102M the result was nd, nd, nd (controls 0 of 9). Variant N30Y K65Y A101N gave 1.98, 1.52, 1.65 (controls 0 of 9). Variant R57F T58D A101K showed nd, nd, 5.11 (controls 3 of 9). For A101G T104R S107Q, the assay gave nd, nd, nd (controls 0 of 9).

For G26L A101E G103C, the assay gave 3.60, 2.72, nd (controls 1 of 9).

Top 5 of the variants detected in all replicates, tightest first:

{"changes": "L29M A101E", "replicates, log10 nM": "-0.13, 0.35, 0.53", "empty controls": "0 of 9"}
{"changes": "R100G A101I", "replicates, log10 nM": "0.78, 1.00, 0.56", "empty controls": "0 of 9"}
{"changes": "T28E K65Y A101W", "replicates, log10 nM": "1.10, 1.54, 1.23", "empty controls": "0 of 9"}
{"changes": "K65S A101T", "replicates, log10 nM": "1.57, 1.63, 1.75", "empty controls": "8 of 9"}
{"changes": "N30Y K65Y A101N", "replicates, log10 nM": "1.98, 1.52, 1.65", "empty controls": "0 of 9"}

Parent in this assay: reference entry 0.65, copy in this library 4.11 (one replicate of three).

The measurements come from Engelhart et al. 2022 (doi:10.1038/s41597-022-01779-4) through the FLAb antibody collection.